Results reported in patent publication US20060002929A1.

Biological target: cOX40L expressed on CHO cells (cynomolgus monkey) (UniProt G7NVH7)
Assay: FACS neutralisation on CHO cells expressing cOX40L, percent inhibition of the binding of biotinylated cFc-OX40R (5 µg/ml); Ab C CHO-expressed lot

IC50 (read off the curve): 5 µg/mL
B1: Ab C (antibody, V domains shown)
VH: QVQLVESGGGVVQPGRSLRLSCAASGFTFSFYGMHWVRQAPGKGLEWVAVIWYDGSNKYYADSVKGRFTISRDNSKNTLYLQMNSLRAEDTAVYYCARGGYDYVWGSYRRNSDFDYWGQGTLVTVSS
VL: DIVMTQTPLSSPVTLGQPASISCRSSQSLVHSDGNTYLSWLQQRPGQPPRLLIYKKFNRFSGVPDRFSGSGAGTDFTLKISRVEAEDVGVYYCMQATQIPLTFGPGTKVDIKR
